# Yeast mating assay 2: variants of the scFv Ab-91

Reference: Engelhart et al. 2022, doi:10.1038/s41597-022-01779-4. File: FLAb, binding data.

Target: peptide PDVDLGDISGINAS, taken from heptad repeat 2 (HR2) of SARS-CoV-2 spike.

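The parent was found by panning a naive human phage display library on the peptide. The library (AAYL51) carries one to three amino acid substitutions per variant, with no insertions or deletions. The assay is AlphaSeq: two haploid yeast populations carry antibody and antigen on their surface. The frequency of each diploid, read from paired DNA barcodes, reflects how well the two displayed proteins bind. The ratio of observed to expected reads was calibrated, replicate by replicate, on BCL2-family standards whose Kd was known from biolayer interferometry. There are three technical replicates.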

Ab-91 is the parent antibody, in scFv form: VL, then a 15-residue (Gly4Ser)3 linker, then VH. The light chain is unchanged in all variants.
VL: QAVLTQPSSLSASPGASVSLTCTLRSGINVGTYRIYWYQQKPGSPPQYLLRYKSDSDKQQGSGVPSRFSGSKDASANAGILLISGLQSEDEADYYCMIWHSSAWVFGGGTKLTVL
VH: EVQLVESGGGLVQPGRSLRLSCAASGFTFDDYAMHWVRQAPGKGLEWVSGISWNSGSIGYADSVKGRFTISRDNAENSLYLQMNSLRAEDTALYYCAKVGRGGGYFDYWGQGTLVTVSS

Positions count from residue 1 of the parent VH; H35P puts P in place of H. Scale: log10 of Kd in nM, estimated from mating counts; low values are strong binders. A mean of the replicates is given; it leaves out those without a signal. A pair that was not seen in that replicate is written "nd"; this usually means weak binding, but a binder can also be missed. Background: pairings of library AAYL51 with three empty control strains gave a value in 21% of cases (median 4.54, 5th percentile 3.26). Values in that range, when seen in few replicates, are hard to tell from nonspecific mating. For each scFv, signals with the empty controls are counted beside the result, with their mean in brackets.

changes,"replicates, log10 nM","mean, log10 nM",control signals
H35P/I51G/V64Y,5.42 / nd / 5.47,5.44,3 of 9 (4.55)
F27G/H35Y/G103Y,3.38 / nd / nd,3.38,4 of 9 (4.00)
M34N,nd / nd / nd,nd,2 of 9 (3.64)
K65E/G102A/Y108L,nd / 5.23 / nd,5.23,2 of 9 (4.95)
R101S/D107F,nd / nd / nd,nd,4 of 9 (4.84)
T28K/G56N/G102S,2.63 / 2.55 / 3.17,2.79,1 of 9 (3.39)
T28P/A61M/S63F,5.31 / nd / nd,5.31,2 of 9 (3.22)
S63Q/G103C/F106N,1.12 / 1.12 / 0.50,0.91,8 of 9 (4.86)
T28H/M34T/G100S,4.80 / nd / nd,4.80,1 of 9 (4.20)
A33V/V64S,nd / nd / nd,nd,0 of 9
D30W/H35K/F106T,4.35 / 5.12 / 4.37,4.61,4 of 9 (4.30)
I51C/G59V/D107K,nd / nd / nd,nd,1 of 9 (3.20)
D31N/S57A/G103Q,1.89 / 1.72 / 1.74,1.79,6 of 9 (4.12)
A33D/D62I/G100S,4.99 / nd / nd,4.99,2 of 9 (4.24)
T28V/G50Y/K65R,nd / nd / nd,nd,0 of 9
Y32N/A33W/G104A,5.93 / 3.78 / 4.06,4.59,4 of 9 (4.90)
F27K/Y32I/G103E,nd / 6.21 / nd,6.21,4 of 9 (4.18)
A33F/I58S/G104P,nd / nd / nd,nd,4 of 9 (4.49)
G50Y/G59A/Y60G,nd / nd / 4.66,4.66,0 of 9
F27C/S63P/Y108N,nd / nd / nd,nd,0 of 9
G26C/R101H/G103Q,5.97 / nd / nd,5.97,3 of 9 (4.82)
S55E/Y60L/D107Q,nd / nd / nd,nd,1 of 9 (3.75)
G56W/I58Q/Y108C,1.17 / 1.19 / 1.21,1.19,2 of 9 (5.49)
W53D/S63V/Y105I,2.07 / 2.75 / nd,2.41,0 of 9
A33G/W53R/V64N,nd / nd / nd,nd,1 of 9 (4.31)
S63E/V64L/Y108M,1.67 / 1.31 / 1.44,1.47,0 of 9
G50K/G59Y/G102P,nd / nd / nd,nd,1 of 9 (3.13)
D30G/D62I/D107P,1.19 / 1.11 / 0.69,0.99,4 of 9 (5.11)
G59T/D62L/K65F,nd / nd / nd,nd,1 of 9 (4.06)
V64T/V99D/F106L,3.91 / nd / nd,3.91,0 of 9

Excerpt, the first 2 entries:

{"changes": "H35P/I51G/V64Y", "replicates, log10 nM": "5.42 / nd / 5.47", "mean, log10 nM": "5.44", "control signals": "3 of 9 (4.55)"}
{"changes": "F27G/H35Y/G103Y", "replicates, log10 nM": "3.38 / nd / nd", "mean, log10 nM": "3.38", "control signals": "4 of 9 (4.00)"}

For reference, the parent read 1.86 as the reference entry and 0.88 as a member of this library.